# From US9290617B2, “Method of biomolecule immobilization on polymers using click-type chemistry” (priority 2005, dated 2016)
# Entries after “also recorded” stand apart in the source; their conditions may differ.
# System: HER2-overexpressing SKBR3 cancer cells
# Test: Flow cytometry binding of anti-HER2 immuno-nanoparticles to SKBR3 cells
# Type: cell-based
# Method: 3.0 mg/ml copolymer nanoparticle solution in distilled water was mixed with the same volume of 0.1 mg/ml Mal-Ab 4 solution in 50 mM MES buffer of pH 5.5. The reaction solution was incubated under mild shaking at 37° C. for various time periods. The immuno-nanoparticles were purified by passing over a Sephacryl S-300HR column in PBS buffer of pH 7.4. The bound antibody was quantified by enzyme-linked immunosorbent assay (ELISA). […] It is notable that a coupling efficiency of greater than 80% was achieved after 6 h of incubation, corresponding to 27.0 μg of antibody bound per mg of nanoparticle. […] Herceptin® antibodies specifically recognize and bind with the HER2 receptor, which is overexpressed on the surface of SKBR3 breast cancer cells.
substance,measurement,value
anti-HER2 immuno-nanoparticles: monoclonal antibody Herceptin coupled with the nanoparticles by the Diels-Alder procedure,binding with SKBR3 breast cancer cells,successfully bound; also recorded: successful binding
